What was measured:
[1] = biological target: ER-β (Gen Bank Accession #X99101) (Homo sapiens, UniProt Q92731); assay: Estrogen receptor binding, competition with [125I]-estradiol, ER-β; settings: read-out: ER-β Ki nM; competition with 150 pM [125I]-estradiol; receptor-programmed reticulocyte lysate; overnight at 4° C.; Cheng-Prushoff from IC50
[2] = biological target: ER-α (Gen Bank Accession #M12674) (Homo sapiens, UniProt P03372); assay: Estrogen receptor binding, competition with [125I]-estradiol, ER-α; settings: read-out: ER-α Ki nM; competition with 150 pM [125I]-estradiol; receptor-programmed reticulocyte lysate; overnight at 4° C.; Cheng-Prushoff from IC50

The chains behind the UniProt entries cited, without tags or fusion partners. Residues count along the entry.
UniProt Q92731, 54-530 limits assumed: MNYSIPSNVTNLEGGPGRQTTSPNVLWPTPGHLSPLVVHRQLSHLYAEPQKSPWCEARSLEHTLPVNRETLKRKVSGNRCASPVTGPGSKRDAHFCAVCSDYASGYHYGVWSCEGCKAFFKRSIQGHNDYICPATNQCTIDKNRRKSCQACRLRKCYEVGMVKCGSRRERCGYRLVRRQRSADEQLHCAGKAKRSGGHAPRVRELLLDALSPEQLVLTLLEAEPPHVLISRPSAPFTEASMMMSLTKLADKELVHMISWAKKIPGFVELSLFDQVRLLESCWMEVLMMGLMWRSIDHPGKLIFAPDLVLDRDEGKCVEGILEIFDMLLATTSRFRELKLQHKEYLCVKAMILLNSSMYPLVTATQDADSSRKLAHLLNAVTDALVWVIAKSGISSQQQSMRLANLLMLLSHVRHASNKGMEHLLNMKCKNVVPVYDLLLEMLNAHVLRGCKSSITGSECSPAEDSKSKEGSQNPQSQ
UniProt P03372, whole entry: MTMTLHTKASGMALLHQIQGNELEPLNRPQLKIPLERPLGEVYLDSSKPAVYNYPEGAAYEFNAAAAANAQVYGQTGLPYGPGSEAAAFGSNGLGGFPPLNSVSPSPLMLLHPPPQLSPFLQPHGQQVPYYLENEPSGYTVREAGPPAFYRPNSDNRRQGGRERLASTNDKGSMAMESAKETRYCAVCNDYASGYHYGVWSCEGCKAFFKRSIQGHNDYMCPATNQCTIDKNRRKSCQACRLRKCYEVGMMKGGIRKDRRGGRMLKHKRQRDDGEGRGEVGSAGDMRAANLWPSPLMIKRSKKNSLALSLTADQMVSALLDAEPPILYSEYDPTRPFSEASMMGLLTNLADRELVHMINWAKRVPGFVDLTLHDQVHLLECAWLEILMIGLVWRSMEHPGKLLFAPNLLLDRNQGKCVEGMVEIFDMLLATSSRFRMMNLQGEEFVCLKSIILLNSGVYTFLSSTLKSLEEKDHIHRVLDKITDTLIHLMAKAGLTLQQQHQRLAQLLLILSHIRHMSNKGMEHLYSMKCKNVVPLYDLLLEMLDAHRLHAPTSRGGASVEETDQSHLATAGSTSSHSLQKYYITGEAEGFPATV

| Structure (SMILES) | Ki [1] [nM] | Ki [2] [nM] |
| --- | --- | --- |
| O=C1c2ccc(O)cc2CCC1c1cccc(Br)c1 (stereo not drawn) | 116 | – |
| O=c1oc2c(O)cccc2cc1-c1ccc(O)cc1 | 104 | > 3000 |
| O=c1oc2cc(O)ccc2cc1-c1cccs1 | 108 | > 3000 |
| CC(C)Oc1ccc(-c2c(C(F)(F)F)oc3cc(O)ccc3c2=O)cc1 | 118 | – |

Source: patent publication US6518301B1, “Estrogen receptor-β ligands” (AstraZeneca AB, priority 1999, dated 2003)
